Drawing on PubChem BioAssay (NCI), this text covers GI50 and TGI for one compound.

The subject of this test is MDA-MB-468 breast. Nature of the test: inhibition of tumour cell growth, NCI panel, 48 h.

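Briefly, cells in 96-well plates were exposed to five compound concentrations for 48 h, and endpoints were estimated by linear interpolation. GI50 = concentration required for 50% inhibition of growth. Definition used: TGI = concentration required for complete inhibition of growth.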

Turning to `Cc1ccc(N(CCCl)CCCl)cc1`, the GI50 is 1.55 µM and the TGI is 5.86 µM.
